How the values were obtained:
JAK1 = JAK1 (Homo sapiens (Human), UniProt P23458); assay: JAK1 Kinase Assay Protocol; assay type: biochemical; conditions: GST-JAK1; ATP 100 μM; Caliper LabChip; read-out: LLE_JAK1 (IC50)
Protocol: JAK1 Kinase Assay Protocol
The assay reactions were performed in U-bottom 384-well plates. The final assay volume was 30 μl prepared from 15 μl additions of enzyme and substrates (fluoresceinated peptide and ATP) and test compounds in assay buffer (20 mM HEPES pH 7.4, 10 mM MgCl2, 25 mM beta-glycerol phosphate, 0.015% Brij35 and 4 mM DTT). The reaction was initiated by the combination of GST-JAK1 enzyme with substrates and test compounds. The reactions were incubated at room temperature for 3 hours and terminated by adding 60 μl of 35 mM EDTA to each sample. […] The final concentration of reagents in the assays was: ATP, 100 μM; fluoresceinated peptide, 1.5 μM; GST-JAK1, 12.5 nM; and DMSO, 1.6%. […] Compounds were dissolved at 10 mM in dimethylsulfoxide (DMSO) and evaluated at eleven concentrations. IC50 values were derived by non-linear regression analysis.

Chains of the proteins cited; added tags and fusions are not shown. Lines headed by an entry give the natural chain unless they say otherwise; changes in a name come on top.
UniProt P23458: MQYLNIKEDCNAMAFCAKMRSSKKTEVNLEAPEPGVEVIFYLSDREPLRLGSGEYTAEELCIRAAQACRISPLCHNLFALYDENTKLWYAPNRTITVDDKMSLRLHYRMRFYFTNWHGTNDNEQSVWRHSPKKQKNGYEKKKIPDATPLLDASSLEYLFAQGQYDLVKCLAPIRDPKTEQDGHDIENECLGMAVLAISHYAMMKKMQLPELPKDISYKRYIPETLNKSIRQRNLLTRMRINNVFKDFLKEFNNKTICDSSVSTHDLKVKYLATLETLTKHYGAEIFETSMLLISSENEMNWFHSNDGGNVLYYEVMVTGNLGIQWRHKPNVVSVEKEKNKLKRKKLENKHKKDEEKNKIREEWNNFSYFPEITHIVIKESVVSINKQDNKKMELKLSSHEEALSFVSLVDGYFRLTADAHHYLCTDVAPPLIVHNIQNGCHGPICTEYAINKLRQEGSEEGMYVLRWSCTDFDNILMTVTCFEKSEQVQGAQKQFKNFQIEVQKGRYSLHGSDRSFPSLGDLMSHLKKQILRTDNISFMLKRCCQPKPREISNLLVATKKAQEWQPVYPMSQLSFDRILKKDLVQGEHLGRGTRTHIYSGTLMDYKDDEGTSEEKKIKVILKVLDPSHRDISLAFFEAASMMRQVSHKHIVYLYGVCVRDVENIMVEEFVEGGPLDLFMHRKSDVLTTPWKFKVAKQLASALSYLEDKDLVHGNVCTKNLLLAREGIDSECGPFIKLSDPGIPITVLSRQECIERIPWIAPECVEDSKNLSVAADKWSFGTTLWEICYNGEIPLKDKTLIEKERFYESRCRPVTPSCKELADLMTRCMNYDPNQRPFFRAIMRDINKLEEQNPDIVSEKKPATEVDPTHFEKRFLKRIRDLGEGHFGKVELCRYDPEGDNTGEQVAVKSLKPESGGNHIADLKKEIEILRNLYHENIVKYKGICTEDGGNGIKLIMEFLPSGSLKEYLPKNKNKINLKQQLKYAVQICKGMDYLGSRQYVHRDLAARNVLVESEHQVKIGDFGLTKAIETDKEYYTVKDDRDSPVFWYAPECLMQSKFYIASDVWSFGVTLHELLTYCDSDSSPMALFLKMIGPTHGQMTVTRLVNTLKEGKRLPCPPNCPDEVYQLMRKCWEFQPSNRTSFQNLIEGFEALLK
UniProt P52333: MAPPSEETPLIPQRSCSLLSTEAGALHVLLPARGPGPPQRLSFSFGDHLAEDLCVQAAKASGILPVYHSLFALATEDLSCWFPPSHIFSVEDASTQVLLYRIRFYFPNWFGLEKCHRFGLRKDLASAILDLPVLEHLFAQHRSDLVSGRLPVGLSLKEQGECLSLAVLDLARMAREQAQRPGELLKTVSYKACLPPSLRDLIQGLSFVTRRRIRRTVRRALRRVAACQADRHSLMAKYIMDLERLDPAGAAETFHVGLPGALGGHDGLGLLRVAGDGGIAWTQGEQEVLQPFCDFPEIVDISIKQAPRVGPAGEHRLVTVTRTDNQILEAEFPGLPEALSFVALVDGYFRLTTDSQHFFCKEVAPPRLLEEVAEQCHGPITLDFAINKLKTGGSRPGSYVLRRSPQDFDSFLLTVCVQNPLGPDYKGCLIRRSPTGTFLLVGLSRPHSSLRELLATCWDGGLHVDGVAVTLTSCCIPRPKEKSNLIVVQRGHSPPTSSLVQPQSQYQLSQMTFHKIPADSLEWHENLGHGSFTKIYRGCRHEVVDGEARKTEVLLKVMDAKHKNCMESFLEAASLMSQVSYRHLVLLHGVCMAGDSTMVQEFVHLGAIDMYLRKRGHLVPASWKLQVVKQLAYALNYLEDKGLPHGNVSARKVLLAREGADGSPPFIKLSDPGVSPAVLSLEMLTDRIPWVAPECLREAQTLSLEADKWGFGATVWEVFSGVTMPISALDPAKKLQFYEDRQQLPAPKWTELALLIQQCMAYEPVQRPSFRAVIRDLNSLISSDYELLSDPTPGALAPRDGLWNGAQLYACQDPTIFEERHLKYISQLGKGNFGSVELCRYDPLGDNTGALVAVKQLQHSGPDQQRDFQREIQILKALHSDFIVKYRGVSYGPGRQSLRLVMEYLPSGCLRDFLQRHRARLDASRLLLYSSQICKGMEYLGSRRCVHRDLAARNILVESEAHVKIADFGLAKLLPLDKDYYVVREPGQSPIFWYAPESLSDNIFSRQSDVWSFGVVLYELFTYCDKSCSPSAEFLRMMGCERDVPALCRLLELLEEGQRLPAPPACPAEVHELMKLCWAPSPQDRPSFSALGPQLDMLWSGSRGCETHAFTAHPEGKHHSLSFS

JAK3 = JAK3 (Homo sapiens (Human), UniProt P52333); assay: JAK3 Kinase Assay (Caliper / Filter protocols); assay type: biochemical; conditions: JAK3 kinase inhibition; ATP 8 μM; read-out: LLE_JAK3_FB (IC50)
Protocol: JAK3 Kinase Assay Protocol (Caliper)
The assay reactions were performed in U-bottom 384-well plates. […] The reaction was initiated by the combination of GST-JAK3 enzyme with substrates and test compounds. The reactions were incubated at room temperature for 3 hours and terminated by adding 60 μl of 35 mM EDTA to each sample. […] Compounds were dissolved at 10 mM in dimethylsulfoxide (DMSO) and evaluated at eleven concentrations. IC50 values were derived by non-linear regression analysis.
JAK3 Kinase Assay Protocol (Filter)
Kinase reactions consisted of 5 ng of JAK3 enzyme, 30 uM CSKtide substrate, 0.2 μCi ^33P γ-ATP, 8 μM ATP in 30 μl kinase buffer (50 mM Hepes, pH 8.0, 10 mM MgCl2, 1 mM EGTA, 2 mM DTT). Reactions were incubated for 30 minutes at room temperature and stopped by the addition of cold trichloroacetic acid (TCA) to a final concentration of 15%. TCA precipitates were collected onto 384 well phosphocellulose filters (Millipore) using a Platemate to transfer the reaction mixture, washed on an EMBLA plate washer and the filters were quantitated using a TopCount 384-well liquid scintillation counter. […] Compounds were dissolved at 10 mM in dimethylsulfoxide (DMSO) and evaluated at six concentrations, each in triplicate. The final concentration of DMSO in the assay equaled 2%. IC50 values were derived by non-linear regression analysis.

How did the IC50 (JAK1) turn out when COc1ccc(S(=O)(=O)Nc2cc3c(N[C@@H]4CC[C@@](C)(O)C4(C)C)c(C(N)=O)cnn3c2)cc1 (racemic) [Example 24] was run?
Its IC50 is 227 nM.

How did the IC50 (JAK1) turn out when C[C@]1(F)CCC[C@H]1Nc1c(C(N)=O)cnn2cc(-c3cncc4ccccc34)cc12 (racemic) [Example 68] was run?
The IC50 was 98.1 nM.

Which IC50 (JAK1) does the source give for Cn1nccc1-c1cc2c(N[C@H]3CC[C@@](C)(O)CC3)c(C(N)=O)cnn2c1 [Example 162, 4-((4-hydroxy-4-methylcyclohexyl)amino)-6-(1-methyl-1H-pyrazol-5-yl)pyrrolo[1,2-b]pyridazine-3-carboxamide] here?
The IC50 was 108 nM.

For COc1cccc(-c2cc3c(NC4C5CC6CC4CC(O)(C6)C5)c(C(N)=O)cnn3c2)c1 (centres unmarked) [Example 176, 4-((5-hydroxyadamantan-2-yl)amino)-6-(3-methoxyphenyl)pyrrolo [1,2-b]pyridazine-3-carboxamide], which IC50 (JAK1) is on record?
The IC50 was 77.1 nM.

Which IC50 (JAK3) does the source give for Cc1ccc(-c2cc3c(NC4C5CC6CC4CC(O)(C6)C5)c(C(N)=O)cnn3c2)cc1 (centres unmarked) [Example 187, 4-((5-hydroxyadamantan-2-yl)amino)-6-(4-methylphenyl)pyrrolo [1,2-b]pyridazine-3-carboxamide] here?
The IC50 was 6.1 nM.

— US8921368B2, “Pyrrolopyridazine JAK3 inhibitors and their use for the treatment of inflammatory and autoimmune diseases” (Bristol-Myers Squibb Company, priority 2011, dated 2014)
